Data taken from PMC6781469 (Journal of Enzyme Inhibition and Medicinal Chemistry, 2019).

Assays:
ABL1 = ABL1 (Homo sapiens, UniProt P00519); experiment: biochemical; settings: read-out: % Inhibition ABL1
MTOR/FRAP1 = MTOR/FRAP1 (Homo sapiens, UniProt P42345); experiment: kinase panel screen, MTOR/FRAP1; assay type: biochemical; settings: read-out: % Inhibition MTOR/FRAP1
KDR/VEGFR2 = KDR/VEGFR2 (Homo sapiens, UniProt P35968); experiment: biochemical; settings: read-out: % Inhibition KDR/VEGFR2
BRAF = BRAF (Homo sapiens, UniProt P15056); experiment: kinase panel screen, BRAF; settings: read-out: % Inhibition BRAF
CDK2/cyclin E = CDK2/cyclin E (Homo sapiens, UniProt P24941); experiment: biochemical; settings: read-out: % Inhibition CDK2/cyclin E
ERK1 = ERK1 (Homo sapiens, UniProt P27361); experiment: biochemical; settings: read-out: % Inhibition ERK1
EGFR = EGFR (Homo sapiens, UniProt P00533); experiment: biochemical; settings: read-out: % Inhibition EGFR
LCK = LCK (Homo sapiens, UniProt P06239); experiment: biochemical; settings: read-out: % Inhibition LCK
P38a/MAPK14 = P38a/MAPK14 (Homo sapiens, UniProt Q16539); experiment: biochemical; settings: read-out: % Inhibition P38a/MAPK14
PKA = PKA (Homo sapiens, UniProt P17612); experiment: biochemical; settings: read-out: % Inhibition PKA
IGF1R = IGF1R (Homo sapiens, UniProt P08069); experiment: biochemical; settings: read-out: % Inhibition IGF1R
c-MET = c-MET (Homo sapiens, UniProt P08581); experiment: biochemical; settings: read-out: % Inhibition c-MET
JAK3 = JAK3 (Homo sapiens, UniProt P52333); experiment: kinase panel screen, JAK3; settings: read-out: % Inhibition JAK3
MEK1 = MEK1 (Homo sapiens, UniProt Q02750); experiment: biochemical; settings: read-out: % Inhibition MEK1
Aurora A = Aurora A (Homo sapiens, UniProt O14965); experiment: biochemical; settings: read-out: % Inhibition Aurora A
JNK3 = JNK3 (Homo sapiens, UniProt P53779); experiment: biochemical; settings: read-out: % Inhibition JNK3
RON/MST1R = RON/MST1R (Homo sapiens, UniProt Q04912); experiment: biochemical; settings: read-out: % Inhibition RON/MST1R
c-Kit = c-Kit (Homo sapiens, UniProt P10721); experiment: biochemical; settings: read-out: % Inhibition c-Kit
FGFR3 = biological target: T1, FGFR3 (Homo sapiens, UniProt P22607); experiment: kinase panel screen, FGFR3; assay type: biochemical; settings: read-out: % Inhibition FGFR3
T1 construct: purchased Reaction Biology Corp. (Kinase HotSpot service)

GSK3b = GSK3b (Homo sapiens, UniProt P49841); experiment: biochemical; settings: read-out: % Inhibition GSK3b
BTK = BTK (Homo sapiens, UniProt Q06187); experiment: biochemical; settings: read-out: % Inhibition BTK
c-Src = c-Src (Homo sapiens, UniProt P12931); experiment: biochemical; settings: read-out: % Inhibition c-Src
CDK1/cyclin B = CDK1/cyclin B (Homo sapiens, UniProt P06493); experiment: biochemical; settings: read-out: % Inhibition CDK1/cyclin B
AKT1 = AKT1 (Homo sapiens, UniProt P31749); experiment: biochemical; settings: read-out: % Inhibition AKT1
BRAF (V599E) = BRAF (V599E) (Homo sapiens, UniProt P15056, V600E); experiment: kinase panel screen, BRAF (V599E); settings: read-out: % Inhibition BRAF (V599E)
ALK = ALK (Homo sapiens, UniProt Q9UM73); experiment: biochemical; settings: read-out: % Inhibition ALK
LYN = LYN (Homo sapiens, UniProt P07948); experiment: biochemical; settings: read-out: % Inhibition LYN
RIPK3 = RIPK3 (Homo sapiens, UniProt Q9Y572); experiment: biochemical; settings: read-out: % Inhibition RIPK3
FLT1/VEGFR1 = FLT1/VEGFR1 (Homo sapiens, UniProt P17948); experiment: biochemical; settings: read-out: % Inhibition FLT1/VEGFR1
PLK1 = PLK1 (Homo sapiens, UniProt P53350); experiment: biochemical; settings: read-out: % Inhibition PLK1

Q: With `Cc1oncc1C(=O)Nc1ccc2nc(-c3cc(N4CCN(C)CC4)cc(C(F)(F)F)c3)[nH]c2c1` [5a, 5-methyl-N-(2-(3-(4-methylpiperazin-1-yl)-5-(trifluoromethyl)phenyl)-1H-benzo[d]imidazole-5-yl) isoxazole-4-carboxamide] as the molecule, how does the inhibition at 10 µM (ABL1) read?
A: 17.1%

Q: What about the inhibition at 10 µM (MTOR/FRAP1) of the same molecule?
A: 2.35%

Q: And the inhibition at 10 µM (KDR/VEGFR2)?
A: 13.2%

Q: And the inhibition at 10 µM (BRAF)?
A: 7.31%

Q: And the inhibition at 10 µM (CDK2/cyclin E)?
A: 1.78%

Q: What about the inhibition at 10 µM (ERK1) of the same molecule?
A: 5.18%

Q: And the inhibition at 10 µM (EGFR)?
A: 4.09%

Q: What about the inhibition at 10 µM (LCK) of the same molecule?
A: 0.625%

Q: What about the inhibition at 10 µM (P38a/MAPK14) of the same molecule?
A: 0%

Q: And the inhibition at 10 µM (PKA)?
A: 8.46%

Q: And the inhibition at 10 µM (IGF1R)?
A: 7.13%

Q: And the inhibition at 10 µM (c-MET)?
A: 9.18%

Q: What about the inhibition at 10 µM (JAK3) of the same molecule?
A: 0%

Q: What about the inhibition at 10 µM (MEK1) of the same molecule?
A: 18.8%

Q: And the inhibition at 10 µM (Aurora A)?
A: 12.5%

Q: And the inhibition at 10 µM (JNK3)?
A: 7.12%

Q: And the inhibition at 10 µM (RON/MST1R)?
A: 0%

Q: What about the inhibition at 10 µM (c-Kit) of the same molecule?
A: 15.5%

Q: What about the inhibition at 10 µM (FGFR3) of the same molecule?
A: 2.81%

Q: What about the inhibition at 10 µM (GSK3b) of the same molecule?
A: 3.98%

Q: What about the inhibition at 10 µM (BTK) of the same molecule?
A: 15.6%

Q: And the inhibition at 10 µM (c-Src)?
A: 0%

Q: What about the inhibition at 10 µM (CDK1/cyclin B) of the same molecule?
A: 9.31%

Q: What about the inhibition at 10 µM (AKT1) of the same molecule?
A: 11.9%

Q: What about the inhibition at 10 µM (BRAF (V599E)) of the same molecule?
A: 11.9%

Q: And the inhibition at 10 µM (ALK)?
A: 12.6%

Q: What about the inhibition at 10 µM (LYN) of the same molecule?
A: 15.2%

Q: What about the inhibition at 10 µM (RIPK3) of the same molecule?
A: 12.7%

Q: And the inhibition at 10 µM (FLT1/VEGFR1)?
A: 12.7%

Q: And the inhibition at 10 µM (PLK1)?
A: 17.4%
